Data as given in PubChem BioAssay AID717 (Columbia University Molecular Screening Center, 2007).
The list shows a part of the results, in another mix than the full data. Activity calls are given as the source filed them. Cut-off read from the data, not from the text of the source: active = activation above about 37%; inactive = the rest.

Sequences of proteins named here, by UniProt entry; tags and fusion partners are left off.
UniProt P34913, whole entry, looked up: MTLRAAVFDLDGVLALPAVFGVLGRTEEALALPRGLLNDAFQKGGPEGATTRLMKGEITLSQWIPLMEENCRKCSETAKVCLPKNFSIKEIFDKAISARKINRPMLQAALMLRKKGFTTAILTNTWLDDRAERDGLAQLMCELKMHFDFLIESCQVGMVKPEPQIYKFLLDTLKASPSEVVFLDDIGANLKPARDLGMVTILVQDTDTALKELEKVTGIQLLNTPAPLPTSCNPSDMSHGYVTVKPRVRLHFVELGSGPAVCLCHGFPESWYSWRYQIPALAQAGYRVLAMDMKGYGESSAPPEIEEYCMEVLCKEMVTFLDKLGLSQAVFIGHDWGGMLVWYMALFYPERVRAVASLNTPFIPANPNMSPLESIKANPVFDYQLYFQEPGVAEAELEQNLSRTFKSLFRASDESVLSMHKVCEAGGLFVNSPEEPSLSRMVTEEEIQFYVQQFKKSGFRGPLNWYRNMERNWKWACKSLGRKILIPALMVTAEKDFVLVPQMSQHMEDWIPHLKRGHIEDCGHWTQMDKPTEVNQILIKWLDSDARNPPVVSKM

What follows are compounds tested against Bifunctional epoxide hydrolase 2 (Homo sapiens) (UniProt P34913) (assay: soluble epoxide hydrolase activators, primary screen, biochemical, human sEH (AID 717)). Conditions: purified human sEH enzymatic activity, activator screen; at 2 µM; stronger effect = higher value.

| Structure (SMILES) | activation |
| --- | --- |
| CC1(CBr)Cn2c(nc3ccccc3c2=O)S1 (stereo not drawn) | inactive: 12.3% |
| Clc1n[nH]nc1-c1nn[nH][15n]1 | inactive: -5.5% |
| O=P1(Nc2ccccn2)COc2ccccc2OC1 | inactive: -3.9% |
| Cc1ccc(OCC(=O)OC2CN3CCC2CC3)cc1 (stereo not drawn) | inactive: -20.3% |
| O=P1(Nc2ncccn2)COc2ccccc2OC1 | inactive: -4% |
| Cc1nn(-c2ccccc2)c2c1P(=O)(N1CCOCC1)N(C)C(c1ccccc1)=N2 (stereo not drawn) | inactive: 10% |
| CCOP1(=S)c2c(C)nn(CCC#N)c2N=C(c2ccc(F)cc2)N1C (stereo not drawn) | inactive: 3.5% |
| O=[N+]([O-])c1ccc2c(c1)nnn2O | inactive: -1% |
| CCOP1(=S)c2c(C)nn(CCC#N)c2N=C(c2ccccc2F)N1C (stereo not drawn) | inactive: -2.9% |
| Cc1cccc(OCC(=O)OC2CN3CCC2CC3)c1 (stereo not drawn) | inactive: 5.1% |
| CCN(CC)C(=S)SC(NC=O)C(Cl)(Cl)Cl (stereo not drawn) | inactive: -10.5% |
| ClCCSc1nnc(-c2cccnc2)o1 | inactive: -14.4% |
| CCC(C)N(CC(C)C)C(=S)SC(NC(C)=O)C(Cl)(Cl)Cl (stereo not drawn) | inactive: 0.8% |
| COP1(=S)c2c(C)nn(CCC#N)c2N=C(c2ccc(F)cc2)N1C (stereo not drawn) | inactive: -6.3% |
| CC1CCN(C(=O)Oc2c(Cl)cc(Cl)c3cccnc23)CC1 | inactive: -6.6% |
| CCc1nc2c(n1)c1c(non1O)c1c2no[n+]1[O-] | inactive: -11.5% |
| O=[N+]([O-])c1cccc2n[nH]nc12 | inactive: 1.4% |
| CC(=O)N1C2C3N(C(C)=O)C1C1N(C(C)=O)C(C(N1C(C)=O)N3C(C)=O)N2C(C)=O | inactive: 18.9% |
| CCOP(=O)(Nc1ccccc1)OCC | inactive: -6.9% |
| Cc1c2non([O-])c-2c(C)[n+](=O)[n+]1[O-] | inactive: -2.9% |
| Oc1ccccc1CNc1ccccn1 | inactive: -17.3% |
| CC(C)CC(=O)NC(Sc1ccc(Cl)cc1)C(Cl)(Cl)Cl (stereo not drawn) | inactive: 4.4% |
| CN1CCCC(OC(=O)C(c2ccccc2)c2ccccc2)C1 (stereo not drawn) | inactive: -8.7% |
| CCC(=O)N1C2C3N(C(=O)CC)C1C1N(C(=O)CC)C(C(N1C(=O)CC)N3C(=O)CC)N2C(=O)CC | inactive: 5.3% |
| COC(=O)c1cc2c(s1)N=C(c1ccccc1)N(C)P2(=O)N1CCOCC1 (stereo not drawn) | inactive: -3.5% |
| CCOC(=O)NC(Sc1ccccc1)C(Cl)(Cl)Cl (stereo not drawn) | inactive: 0.6% |
| c1nnnn1CCn1cnnn1 | inactive: -4% |
| O=P(Nc1nccs1)(c1ccccc1)c1ccccc1 | inactive: -7.6% |
